The target in the assay is MAP kinase p38 (Homo sapiens, UniProt O15264+Q15759+Q16539+P53778). Kind of assay: Inhibition of p38 MAPK activity assessed as EGFR phosphorylation. It is filed as protein assay.

By UniProt entry, the sequences of proteins in these tests, tags left out. Where a name states a change or a piece, a line headed by the entry shows the natural chain unless it says otherwise.
UniProt O15264: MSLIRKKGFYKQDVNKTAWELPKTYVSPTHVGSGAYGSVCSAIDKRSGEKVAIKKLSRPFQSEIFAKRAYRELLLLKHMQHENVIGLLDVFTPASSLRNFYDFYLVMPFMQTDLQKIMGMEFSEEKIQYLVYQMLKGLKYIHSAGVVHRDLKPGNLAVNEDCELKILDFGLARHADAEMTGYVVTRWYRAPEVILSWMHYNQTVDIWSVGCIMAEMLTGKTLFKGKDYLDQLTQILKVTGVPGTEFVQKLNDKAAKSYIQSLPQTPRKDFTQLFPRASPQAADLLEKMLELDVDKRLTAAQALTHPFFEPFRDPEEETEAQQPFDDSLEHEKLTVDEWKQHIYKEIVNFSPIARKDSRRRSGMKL
UniProt Q15759: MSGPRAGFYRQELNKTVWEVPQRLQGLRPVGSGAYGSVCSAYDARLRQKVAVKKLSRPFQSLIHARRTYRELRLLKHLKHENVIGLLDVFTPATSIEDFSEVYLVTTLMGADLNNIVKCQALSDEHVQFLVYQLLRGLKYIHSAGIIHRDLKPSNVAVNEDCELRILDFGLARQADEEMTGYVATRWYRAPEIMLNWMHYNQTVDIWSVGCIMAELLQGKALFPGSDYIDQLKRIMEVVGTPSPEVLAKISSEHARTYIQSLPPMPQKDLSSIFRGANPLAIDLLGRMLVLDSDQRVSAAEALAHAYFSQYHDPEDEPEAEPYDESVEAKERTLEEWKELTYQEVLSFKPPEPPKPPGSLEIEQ
UniProt Q16539: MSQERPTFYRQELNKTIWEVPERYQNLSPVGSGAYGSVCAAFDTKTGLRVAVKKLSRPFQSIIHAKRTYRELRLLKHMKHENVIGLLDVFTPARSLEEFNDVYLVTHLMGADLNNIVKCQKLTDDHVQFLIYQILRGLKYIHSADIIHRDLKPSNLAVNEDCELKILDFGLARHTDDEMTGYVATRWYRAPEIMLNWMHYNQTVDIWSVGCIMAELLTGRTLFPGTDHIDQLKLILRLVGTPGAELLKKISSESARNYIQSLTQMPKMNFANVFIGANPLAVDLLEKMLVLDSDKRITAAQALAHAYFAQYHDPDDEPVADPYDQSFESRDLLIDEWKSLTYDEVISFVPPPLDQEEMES
UniProt P53778: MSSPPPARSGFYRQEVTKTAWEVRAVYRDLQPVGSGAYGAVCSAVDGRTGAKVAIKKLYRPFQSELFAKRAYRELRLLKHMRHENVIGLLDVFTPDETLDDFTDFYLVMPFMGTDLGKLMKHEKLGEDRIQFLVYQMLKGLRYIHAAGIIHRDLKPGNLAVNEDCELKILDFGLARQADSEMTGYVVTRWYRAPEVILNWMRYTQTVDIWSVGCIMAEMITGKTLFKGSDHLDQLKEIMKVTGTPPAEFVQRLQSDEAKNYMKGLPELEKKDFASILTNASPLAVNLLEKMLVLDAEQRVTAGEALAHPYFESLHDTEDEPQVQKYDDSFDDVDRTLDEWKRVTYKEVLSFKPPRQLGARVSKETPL

In the case of `CC1CN(c2[nH]nc(-c3ccc(Cl)cc3)c2-c2ccncc2)CC(C)N1` (stereo unspecified), the IC50 was 0.012 µM.

Source of the values: ChEMBL document CHEMBL1138242, “Synthesis, crystal structure, and activity of pyrazole-based inhibitors of p38 kinase” (J Med Chem, 2007).
